# Binding of CDR-mutated scFvs to a peptide of the spike HR2 region

The target is the same throughout: PDVDLGDISGINAS, from the HR2 region of SARS-CoV-2 spike.

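The variants were designed computationally from a first round of random CDR variants and then made and measured. Group labels follow the data file (Ctrl: baseline library sampled from a position-specific scoring matrix, with some repeated check sequences; En: ensemble of fine-tuned language models; GP: Gaussian process model; GPLM: also part of the Gaussian process libraries; HC: hill climbing; Gen: genetic algorithm; Gibbs: Gibbs sampling; a sequence that several methods proposed may carry one label only). In AlphaSeq, yeast of one mating type display the scFv and yeast of the other type display the target. Binding brings cells together so that they mate, and sequencing counts the barcode pairs among the diploids. A regression on co-assayed BCL2-family reference pairs converts the normalised counts of each replicate to an apparent Kd. Mating was done six times.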

Each scFv is VH, three GGGGS repeats, VL, as in the parent Ab-14, and differs from it in the CDRs of the heavy chain only.
VH: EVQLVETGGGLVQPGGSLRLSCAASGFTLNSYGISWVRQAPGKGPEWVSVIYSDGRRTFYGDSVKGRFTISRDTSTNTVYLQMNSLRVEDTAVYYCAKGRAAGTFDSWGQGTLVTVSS
VL: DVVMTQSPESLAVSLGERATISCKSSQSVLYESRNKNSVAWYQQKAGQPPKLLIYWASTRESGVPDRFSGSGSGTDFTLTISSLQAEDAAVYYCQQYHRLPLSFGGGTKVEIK

Each variant's VH is given in full.
Each Kd is an estimate from the mating assay, the geometric mean of the replicates in which the pair was seen; lower is stronger.
"not detected" means that the variant was in the library but no mating with the target was seen in any replicate; the authors take this as a sign of poor binding, and no number exists.
A sequence that the file lists under several names has all its replicates pooled.

| VH | group | Kd | detected | signal with controls |
|---|---|---|---|---|
| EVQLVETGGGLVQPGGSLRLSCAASGFDLNSYGISWVRQAPGKGPEWVSVIYSDGRRTFYADSVKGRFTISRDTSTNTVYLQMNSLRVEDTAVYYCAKGRVAGTFDTWGQGTLVTVSS | GPLM_Gibbs | 7.5 nM | 3 of 6 | 0 of 18 |
| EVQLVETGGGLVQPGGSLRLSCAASGFTMNSYGISWVRQAPGKGPEWVSVIYSDGRRTFYDDSVKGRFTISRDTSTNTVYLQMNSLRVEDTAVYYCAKIRAYGTFDSWGQGTLVTVSS | Ctrl | not detected | 0 of 6 | 0 of 18 |
| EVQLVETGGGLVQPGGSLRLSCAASGFTLEEYGISWVRQAPGKGPEWVSVIYSDGRRTFYGDSVLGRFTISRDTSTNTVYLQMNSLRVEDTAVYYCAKGRAAGTFLSWGQGTLVTVSS | Ctrl | not detected | 0 of 6 | 0 of 18 |
| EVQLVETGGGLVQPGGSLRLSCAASGFWLNDYGISWVRQAPGKGPEWVSVIYSDGRRTFYHDKVKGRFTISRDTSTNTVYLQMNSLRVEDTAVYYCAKGRTAGTFDSWGQGTLVTVSS | GP_Gibbs | 5.7 nM | 5 of 6 | 0 of 18 |
| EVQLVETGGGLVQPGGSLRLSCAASGFHLNSYGISWVRQAPGKGPEWVSVIYSDGRRTFYQDSVKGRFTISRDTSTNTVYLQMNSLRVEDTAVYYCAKGRNAGTFDTWGQGTLVTVSS | GP_Gibbs | 130 nM | 5 of 6 | 1 of 18 |
| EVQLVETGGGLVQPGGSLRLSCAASGFDLNEYGISWVRQAPGKGPEWVSVIYADGVRTAYTDSVKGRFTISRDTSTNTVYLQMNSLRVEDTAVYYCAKGNQAGTFDLWGQGTLVTVSS | En_Gen | 2.6 nM | 6 of 6 | 0 of 18 |
| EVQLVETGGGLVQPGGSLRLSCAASGFNLNEYGISWVRQAPGKGPEWVSVIYADGRRTFYADSVKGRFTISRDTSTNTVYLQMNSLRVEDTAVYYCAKGETAGSFDIWGQGTLVTVSS | En_HC | 370 pM | 6 of 6 | 0 of 18 |
| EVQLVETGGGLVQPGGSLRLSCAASGFSLNSYGISWVRQAPGKGPEWVSVIYSDGRRTFYSDSVKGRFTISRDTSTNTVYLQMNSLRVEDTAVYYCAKGSVAGTFDSWGQGTLVTVSS | GPLM_Gibbs | 210 pM | 6 of 6 | 0 of 18 |
| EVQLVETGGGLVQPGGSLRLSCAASGLTLNEYGISWVRQAPGKGPEWVSVIYSDGRRTFYQDSVKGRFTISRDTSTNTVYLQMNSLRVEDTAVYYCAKGRAAGTFDSWGQGTLVTVSS | Ctrl | 120 nM | 5 of 6 | 1 of 18 |
| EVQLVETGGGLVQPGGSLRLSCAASGQGLDEYGISWVRQAPGKGPEWVSVIYADGVRTYYTPNVKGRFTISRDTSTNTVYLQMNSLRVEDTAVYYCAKGQVLGVINIWGQGTLVTVSS | En_Gibbs | not detected | 0 of 6 | 0 of 18 |
| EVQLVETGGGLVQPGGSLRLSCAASGFDLDEYGISWVRQAPGKGPEWVSVIYADGKRTFYSDSVKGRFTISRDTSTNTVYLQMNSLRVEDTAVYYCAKGNVAGTFDVWGQGTLVTVSS | En_Gen | 510 pM | 6 of 6 | 0 of 18 |
| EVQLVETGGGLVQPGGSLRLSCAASGFDVEEYGISWVRQAPGKGPEWVSVIYADGRQSQYANSVKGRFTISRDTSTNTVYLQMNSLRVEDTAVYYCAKGAIRGTFDMWGQGTLVTVSS | En_Gibbs | not detected | 0 of 6 | 0 of 18 |
| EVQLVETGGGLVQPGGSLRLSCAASGFDLEEYGISWVRQAPGKGPEWVSVIYADGMRQMYAQNFKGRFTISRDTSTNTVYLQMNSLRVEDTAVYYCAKGYNSSDGTVWGQGTLVTVSS | En_Gibbs | not detected | 0 of 6 | 0 of 18 |
| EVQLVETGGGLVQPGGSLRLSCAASGFNLEDYGISWVRQAPGKGPEWVSVIYADGKRTAYADSVKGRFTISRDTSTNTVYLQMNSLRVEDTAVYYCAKGEVAGTFDVWGQGTLVTVSS | En_HC | 530 pM | 6 of 6 | 0 of 18 |
| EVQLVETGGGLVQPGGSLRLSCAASGFDLNSYGISWVRQAPGKGPEWVSVIYSDGRRTFYVDSVKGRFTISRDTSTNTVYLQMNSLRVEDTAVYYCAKGRVAGTFDIWGQGTLVTVSS | GP_Gibbs | 2.9 nM | 6 of 6 | 0 of 18 |
| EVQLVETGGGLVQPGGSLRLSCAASGFDLNSYGISWVRQAPGKGPEWVSVIYSDGRRTFYTDSVKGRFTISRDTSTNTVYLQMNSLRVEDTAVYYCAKGRAAGTFDSWGQGTLVTVSS | GPLM_Gen | 5.6 nM | 6 of 6 | 1 of 18 |
| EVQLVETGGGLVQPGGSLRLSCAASGFNLDEYGISWVRQAPGKGPEWVSVIYADGMRTFVSNAVKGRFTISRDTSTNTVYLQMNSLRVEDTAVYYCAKGHNADFLFVWGQGTLVTVSS | En_Gibbs | 110 pM | 6 of 6 | 0 of 18 |
| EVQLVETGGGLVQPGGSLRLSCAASGFDLNEYGISWVRQAPGKGPEWVSVIYADGRRTAYSDSVKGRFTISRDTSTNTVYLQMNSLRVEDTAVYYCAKGNTAGTFDMWGQGTLVTVSS | En_Gen | 330 pM | 6 of 6 | 0 of 18 |
| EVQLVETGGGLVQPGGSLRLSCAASGFTLNSYGISWVRQAPGKGPEWVSVIYSDGRRTFYIDSVKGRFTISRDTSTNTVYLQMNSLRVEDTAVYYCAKGKAAGTFDSWGQGTLVTVSS | GPLM_Gen | 11 nM | 3 of 6 | 1 of 18 |
| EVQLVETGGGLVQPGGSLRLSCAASGFSLNNYGISWVRQAPGKGPEWVSVIYSDGRRTFYHDSVKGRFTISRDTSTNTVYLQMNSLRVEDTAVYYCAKGRTAGTFDSWGQGTLVTVSS | GPLM_Gen | 3.3 nM | 6 of 6 | 0 of 18 |
| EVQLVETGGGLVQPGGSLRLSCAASGFTLNSYGISWVRQAPGKGPEWVSVIYSDGRRTFYGDSVKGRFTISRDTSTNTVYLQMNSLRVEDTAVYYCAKGQAAGTFDTWGQGTLVTVSS | Ctrl+GPLM_Gibbs | 34 nM | 9 of 12 | 0 of 36 |
| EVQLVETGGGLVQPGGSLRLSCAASGFTLNSYGISWVRQAPGKGPEWVSVIYSDGRRLFYGDSVKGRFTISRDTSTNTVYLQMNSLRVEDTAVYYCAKGRLAGTFDKWGQGTLVTVSS | Ctrl | not detected | 0 of 6 | 0 of 18 |
| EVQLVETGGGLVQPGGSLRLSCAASGFNLNSYGISWVRQAPGKGPEWVSVIYSDGRRTFYADMVKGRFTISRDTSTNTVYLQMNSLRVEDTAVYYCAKGQAAGTFDSWGQGTLVTVSS | GPLM_Gen | 12 nM | 2 of 6 | 0 of 18 |

The closing 2 entries, repeated:

| VH | group | Kd | detected | signal with controls |
|---|---|---|---|---|
| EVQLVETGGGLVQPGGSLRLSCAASGFTLNSYGISWVRQAPGKGPEWVSVIYSDGRRLFYGDSVKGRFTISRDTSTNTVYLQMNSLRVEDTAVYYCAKGRLAGTFDKWGQGTLVTVSS | Ctrl | not detected | 0 of 6 | 0 of 18 |
| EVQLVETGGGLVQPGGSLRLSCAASGFNLNSYGISWVRQAPGKGPEWVSVIYSDGRRTFYADMVKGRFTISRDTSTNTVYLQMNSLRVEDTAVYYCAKGQAAGTFDSWGQGTLVTVSS | GPLM_Gen | 12 nM | 2 of 6 | 0 of 18 |

The authors averaged sequences with at least three values out of six and counted those with two or fewer as poor binders.
Three control strains display no target. For all heavy chain designs, 1% of the pairings with them gave a signal, with a median of 120 nM and one signal in twenty below 7.0 nM, so weak values seen in few replicates may be background. Also given: how often the same scFv was detected with the empty control strains.
The parent sequence was in this pool as ten entries: three were never detected, three once, and four in most replicates, with averages from 2.2 nM to 240 nM.
A sequence measured in both rounds can read differently, since the two assays cover different ranges.

Reference: Li et al. 2023, doi:10.1038/s41467-023-39022-2. File: FLAb, binding data.